The results in this text go back to patent publication US20160368961A1 (GLYTECH, published 2016).

By UniProt entry, the sequences of proteins in these tests, tags left out. Where a name states a change or a piece, a line headed by the entry shows the natural chain unless it says otherwise.
UniProt P30874: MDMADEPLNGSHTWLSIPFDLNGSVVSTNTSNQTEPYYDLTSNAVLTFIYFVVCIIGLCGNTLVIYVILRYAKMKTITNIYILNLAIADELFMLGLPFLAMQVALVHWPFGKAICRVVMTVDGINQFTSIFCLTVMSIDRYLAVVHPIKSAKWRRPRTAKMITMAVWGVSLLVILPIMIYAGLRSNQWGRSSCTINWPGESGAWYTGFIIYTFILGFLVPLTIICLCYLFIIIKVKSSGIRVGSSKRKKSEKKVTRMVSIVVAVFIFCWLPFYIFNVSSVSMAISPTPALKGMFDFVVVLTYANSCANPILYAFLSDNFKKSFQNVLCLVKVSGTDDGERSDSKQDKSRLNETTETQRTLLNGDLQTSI
UniProt P35346: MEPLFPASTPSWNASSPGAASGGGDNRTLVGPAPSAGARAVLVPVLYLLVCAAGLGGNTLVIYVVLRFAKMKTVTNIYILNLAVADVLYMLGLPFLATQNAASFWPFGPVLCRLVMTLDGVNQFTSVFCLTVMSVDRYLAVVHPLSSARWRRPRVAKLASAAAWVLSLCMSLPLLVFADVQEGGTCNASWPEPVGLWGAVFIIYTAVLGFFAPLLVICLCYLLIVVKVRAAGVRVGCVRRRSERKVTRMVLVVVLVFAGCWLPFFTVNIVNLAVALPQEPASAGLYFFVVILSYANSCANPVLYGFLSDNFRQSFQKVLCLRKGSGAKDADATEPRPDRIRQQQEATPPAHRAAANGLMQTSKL
UniProt P32745: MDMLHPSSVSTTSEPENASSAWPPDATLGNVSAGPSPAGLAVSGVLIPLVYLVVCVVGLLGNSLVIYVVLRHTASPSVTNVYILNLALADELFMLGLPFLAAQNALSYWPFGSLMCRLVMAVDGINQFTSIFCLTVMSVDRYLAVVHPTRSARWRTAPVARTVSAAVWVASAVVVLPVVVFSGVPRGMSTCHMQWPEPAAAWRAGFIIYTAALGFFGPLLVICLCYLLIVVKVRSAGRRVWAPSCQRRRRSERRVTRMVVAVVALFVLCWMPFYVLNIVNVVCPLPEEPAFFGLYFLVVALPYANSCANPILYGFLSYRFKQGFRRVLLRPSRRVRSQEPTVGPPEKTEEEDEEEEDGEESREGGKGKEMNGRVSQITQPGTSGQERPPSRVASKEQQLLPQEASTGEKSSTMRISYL

The target of assay [1] is T1, Somatostatin receptor SSTR2 (human recombinant, CHO-K1 cells) (human, UniProt P30874 1-369).
T1 construct: whole, on cells; Used as a receptor membrane sample from recombinant cells
Nature of the assay: competitive radioligand binding ([125I]Tyr11-SRIF14), human SSTR2 CHO-K1 membranes.

Assay [2] deals with T2, Somatostatin receptor SSTR5 (human recombinant, Chem-1 cells) (human, UniProt P35346 1-364).
T2 construct: whole, on cells; Used as a receptor membrane sample from recombinant cells
As to the kind of experiment: competitive radioligand binding ([125I]Tyr11-SRIF14), human SSTR5 Chem-1 membranes.

The target of assay [3] is T3, Somatostatin receptor SSTR3 (human recombinant, CHO-K1 cells) (human, UniProt P32745 1-418).
T3 construct: whole, on cells; Used as a receptor membrane sample from recombinant cells
Nature of the assay: competitive radioligand binding ([125I]Tyr11-SRIF14), human SSTR3 CHO-K1 membranes.

B1: 30C(disialo)-SRIF28 (peptide)
peptide: SANSNPAMAPRERKAGCKNFFWKTFTSCTC
modifications: -W-disialo sugar chain attached Cys added after Cys28 (glycosylated Cys at position 30); disulfide bond Cys17-Cys28
notes: The text calls residue 29 'W, any amino acid'
Consider B1, for which the values for the IC50 in assay [1] and in assay [2] were 0.513 nM and 1.36 nM, respectively.

B2: C(disialo)-C12 linker-SRIF14 (peptide)
peptide: CAGCKNFFWKTFTSC
modifications: disialo sugar chain attached Cys at the N-terminus joined to Ala15 of SRIF14 through a C12 linker (12-aminododecanoic acid, -NH-(CH2)11-CO-); disulfide bond Cys17-Cys28 (SRIF28 numbering)
notes: Contains a non-amino-acid linker inside the chain
Turning to B2, the IC50 in assay [2] is 2.29 nM.

B3: N5C(disialo).A9C(disialo)-SRIF28 (peptide)
peptide: SANSCPAMCPRERKAGCKNFFWKTFTSC
modifications: disialo sugar chain attached Cys at positions 5 and 9; disulfide bond Cys17-Cys28
Take B3: the Ki in assay [1] worked out at 0.424 nM.
SANSNPAMAPRERKAGCKCFFWKTFTSC (disialo sugar chain attached Cys at position 19; disulfide bond Cys17-Cys28) [N19C(disialo)-SRIF28]: the inhibitory constant (Ki) in assay [3] amounted to 0.503 nM.

B4: S1C(disialo).R13C(disialo)-SRIF28 (peptide)
peptide: CANSNPAMAPRECKAGCKNFFWKTFTSC
modifications: disialo sugar chain attached Cys at positions 1 and 13; disulfide bond Cys17-Cys28
With B4, the Ki in assay [1] is 3.33 nM.

B5: C(disialo)-SRIF14 (peptide)
peptide: CAGCKNFFWKTFTSC
modifications: disialo sugar chain attached Cys added at the N-terminal side of SRIF14; disulfide bond Cys17-Cys28 (SRIF28 numbering)
In the case of B5, the IC50 was 0.336 nM in assay [1] and 4.62 nM in assay [3].
